According to patent US20140314791A1, “METHODS OF TREATING CANCER” (DANA-FARBER CANCER INSTITUTE, INC., priority 2012, published 2014):
Where two headings read alike, the source gives them in different places.

Assays:
[1] = test system: γH2AX; test: Western blot analysis of γH2AX after CHEK1 inhibitor treatment; type: cell-based
[2] = test system: Lkb1-wt and Lkb1-null cells; settings: fixed dose of 660 nM, 2 days
[3] = test system: γH2AX in Lkb1-null (t2, t4, and t5) cells; settings: 300 nM, 3 h
[4] = test system: γH2AX in Lkb1-wt (634, 855, and 857) cells; settings: 300 nM, 3 h
[5] = test system: Kras/p53, Kras/Lkb1, and Kras/p53/Lkb1 lung tumors; settings: 2 doses

AZD7762
phosphorylation of H2AX (Western blot) ([1]; 3 h at the GI50 concentration): induced phosphorylation of H2AX | difference on γH2AX between Lkb1-null and Lkb1-wt cells (Western blot) ([1]; 3 h treatment): did not reveal a noticeable difference | cell growth relative to DMSO-treated cells [2]: greater growth inhibitory effects on the Lkb1-null than Lkb1-wt cells | cells having DNA DSBs (γH2AX, flow cytometry) ([3]; first of three Lkb1-null values (lines t2, t4, t5)): 7.76% | cells having DNA DSBs (γH2AX, flow cytometry) ([3]; second of three Lkb1-null values (lines t2, t4, t5)): 17.10% | cells having DNA DSBs (γH2AX, flow cytometry) ([3]; third of three Lkb1-null values (lines t2, t4, t5)): 10.30% | cells having DNA DSBs (γH2AX, flow cytometry) ([4]; first of three Lkb1-wt values): 3.06% | cells having DNA DSBs (γH2AX, flow cytometry) ([4]; second of three Lkb1-wt values): 4.42% | cells having DNA DSBs (γH2AX, flow cytometry) ([4]; third of three Lkb1-wt values): 2.88% | 18-FDG uptake of tumors (SUVmax) after treatment ([5]; Kras/Lkb1 and Kras/p53 tumors, respectively): little or no response | 18-FDG uptake of tumors (SUVmax) after treatment ([5]; Kras/p53/Lkb1 tumors): most effective in reducing 18-FDG uptake
